Reference: paper PMC8048383 (Cancer cell, 2021)

System: SCLC cells
Assay: MIPE 5.0 library combination screen with indotecan, pairs ranked by ExcessHSA
Format: cell-based, human

Compound: C[C@@H]1COCCN1c1cc(-c2ccnn2C)c2ccnc(-c3ccn[nH]3)c2n1 [BAY-1895344]
- rank of TOP1 inhibitor-drug pair by ExcessHSA: 1
